From patent US11795135B2, “Prostacyclin compounds, compositions and methods of use thereof” (Insmed Incorporated, priority 2013, dated 2023)

Key:
[1] = Treprostinil alkyl ester conversion to treprostinil in rat lung tissue homogenate; format: in vitro ADME; details: 37° C., 200 nM, 4 hours, 10 mg/mL of protein
Protocol: (§1) Treprostinil alkyl ester conversion to treprostinil was also measured in the presence of rat, dog and monkey lung tissue homogenate at 37° C. Here, data were calculated based on fit of exponential increase to the maximum (experiments performed in duplicate). The results of this study are provided below in Table 2A and FIG. 37. […] Both FIG. 37 experiments (left and right graphs) were performed in duplicate and the lines represent nonlinear exponential regression assuming 1 phase decay.

[2] = Treprostinil alkyl ester conversion to treprostinil in dog lung tissue homogenate; format: in vitro ADME; details: 37° C., 200 nM, 4 hours, 10 mg/mL of protein
Protocol: as §1

[3] = Treprostinil alkyl ester conversion to treprostinil in monkey lung tissue homogenate; format: in vitro ADME; details: 37° C., 200 nM, 4 hours, 10 mg/mL of protein
Protocol: as §1

[4] = Particle size characterization of treprostinil compositions (QELS); format: physicochemical; details: compositions comprising the alkyl ester (Table 3), FIG. 2
CHO-K1 cells = test system: CHO-K1 cells
Protocol: CHO-K1 cells were harvested when the cell monolayer was 50-90% confluent (use passage 4-11). Media was aspirated out of the flask, and cells were rinsed with 2 mL of F12 media. Next, 1 mL of pre-warmed (37° C.) 0.25% trypsin-EDTA (Life Technologies, Cat #: 25300054) was added, and cells were dislodged from the flask by tapping it on the side. Complete growth media (F12 (Life Technologies, Cat #: 31765092)+10% FBS (Hyclone, Cat #: SH30071.03)+1× Pen-Strep (Life Technologies, cat #15140-122) was then added at a volume of 10 mL. Cells were centrifuged at 250×g for 5 minutes at room temperature, and the media was aspirated. The cell pellet was resuspended in 10 mL complete growth media. Cell number was determined using a hemacytometer. Cells were then seeded at 2000 cells per well of a 96-well plate in 100 μL of complete growth media. The plate was incubated overnight at 37° C. and 5% CO2 in a water-jacketed incubator.
The next day, 80 μL of fresh complete media was added to each well, and CHO-K1 cells were challenged with treprostinil compound and composition treatments. […] Following a 48 hour incubation at 37° C. and 5% CO2 in a water-jacketed incubator, the inhibitory effect on cell proliferation was determined. Plates were analyzed using 20 μL of Presto Blue reagent (Life Technologies, cat #: A13262) per well. […]

[5] = test system: Rat alveolar NR8383 cells; test: NR8383 cell proliferation assay (Presto Blue); format: cell-based
Protocol: Rat alveolar NR8383 cells were harvested when the monolayer was 50-90% confluent (use passage 5-11). Because the NR8383 cells include both adherent and non-adherent cells, media was transferred to a 50 mL Falcon tube. To obtain the cells remaining in the flask, 2 mL of plain media was added, and the remaining cells were scraped out of the 75 cm^2 flask with a cell scraper and added to the 50 mL tube. […] SH30071.03)+1×Pen-Strep (Life Technologies, cat #: 15410-122)). Cell number was determined using a hemacytometer. […] Measurements and calculations were made as described above for the CHO-K1 cells.

Substance: treprostinil decyl ester [Compound C10-TR]
- Rate of treprostinil alkyl ester conversion [1]: 7.3 nmOL/h * g of protein
- Rate of treprostinil alkyl ester conversion [2]: 10.5 nmOL/h * g of protein
- Rate of treprostinil alkyl ester conversion [3]: 4.6 nmOL/h * g of protein

Substance: treprostinil pentyl ester [Compound C5-TR]
- average particle diameter [4]: 316 nm
- Effect on cell proliferation, CHO-K1 Cells (0.195 μM-25 μM) (CHO-K1 cells): No detectable cell inhibition
- Effect on cell proliferation, NR8383 Cells (0.195 μM-25 μM) [5]: No detectable cell inhibition
